# Source: patent US4339427A, “Radioimmunoassay of thymosinα” (Hoffmann-la Roche Inc., priority 1980, dated 1982)
# Test system: rabbit anti-thymosin α1 antiserum
# Experiment: radioimmunoassay for thymosin α1 (inhibition of tracer binding / cross-reactivity, double antibody method)
# Details: Table 1; 125I-[Tyr1]-thymosin α1 tracer
# Description: a. Preparation of antisera
# Synthetic thymosin α1 was coupled to Keyhole Limpet Hemocyanin (KLH) by means of glutaraldehyde using the following procedure. Equivalent amounts (dry weight) of each protein, thymosin α1 and hemocyanin, were dissolved in 0.25 M NaPO4, pH 7.0 buffer at a concentration of 2 mg/ml. […] The reaction was allowed to continue for 3 hours while being stirred at room temperature. The reaction mixture was diluted in sterile saline to a final concentration of thymosin α1 of 100 μg/ml. The solution of coupled thymosin α1 was aliquoted and stored at -20° C.
# The mixture of products resulting from the cross-linking reactions carried out at room temperature was not fractionated or purified in any way. The thymosin α1 KLH conjugate was diluted with sterile normal saline and stored frozen for immunizations. […]
# Separation of free from bound tracer is carried out by the addition of goat anti-rabbit gamma globulin serum, incubation for 1 hour at 37° C. and finally incubation at 4° C. for 16 hours. The immunoprecipitate is pelleted by centrifugation at 2500 rpm for 20 minutes, the supernatant is aspirated and discarded, and the radioactivity in the immunoprecipitate is counted in an automatic gamma spectrometer. […]
substance,measurement,value
Serum albumin (human): Serum albumin (human),ED50 - Amount of protein (ng) required to produce a 50% inhibition in RIA,"> 500,000 ng"
